Binding of CDR-mutated scFvs to a peptide of the spike HR2 region

From the AlphaSeq antibody data of Engelhart et al. 2022 (doi:10.1038/s41597-022-01779-4), copy in the FLAb collection.

Binding partner: SARS-CoV-2 spike HR2 peptide, sequence PDVDLGDISGINAS.

Parent: Ab-14, a human scFv built as VH, three GGGGS repeats, VL. Only the CDRs of the heavy chain vary.
VH: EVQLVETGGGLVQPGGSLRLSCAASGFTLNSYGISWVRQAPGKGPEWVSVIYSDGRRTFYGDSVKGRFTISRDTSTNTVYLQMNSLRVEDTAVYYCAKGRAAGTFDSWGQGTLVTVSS
VL: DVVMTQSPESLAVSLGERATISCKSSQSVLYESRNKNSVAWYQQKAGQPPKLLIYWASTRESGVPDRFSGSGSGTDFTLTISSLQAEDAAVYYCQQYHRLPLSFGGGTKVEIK

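The starting antibody came from a phage panning campaign against this peptide. Library AAYL49 holds single substitutions and randomly drawn double and triple substitutions in the CDRs. The assay is AlphaSeq: two haploid yeast populations carry antibody and antigen on their surface. Mating (16 h, 30 °C) was followed by selection of diploids and sequencing of their barcodes. The ratio of observed to expected reads was calibrated, replicate by replicate, on BCL2-family standards whose Kd was known from biolayer interferometry. There are three technical replicates.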

Variants are written as CDR1, CDR2 and CDR3 of the heavy chain (limits as in the source). Parent: GFTLNSYGIS, VIYSDGRRTFYGDSVK, GRAAGTFDS. Every variant below is changed at T104 of the VH (sequential numbering). Each Kd is an estimate from the mating assay, the geometric mean of the replicates in which the pair was seen; lower is stronger. "nd" means that the variant was in the library but no mating with the target was seen in any replicate; the authors take this as a sign of poor binding, and no number exists. Nonspecific signal, from three strains lacking the peptide, appeared in 15% of pairings of library AAYL49, centred on 11 µM (5% of these signals below 680 nM); values are not corrected for it. For reference, the parent read 4.4 nM as the reference entry and 13 µM (one replicate of three) as a member of this library.

With GFTLNSYGIS / VIYSDERRTFYGDSVK / GRLAGMFDS the result was 1.9 µM (1 of 3 replicates). For GFTLLSYGIS / VIYSDGRRTFYMDSVK / GRAAGMFDS, the assay gave nd (0 of 3 replicates). The variant GFTLNSYGIS / VIYSDGRRTFNGDSNK / GRAAGDFDS showed nd (0 of 3 replicates). The variant GFTLNSYGIS / VIYSDGRRTFYGDDVK / GRAADIFDS gave 73 nM (3 of 3 replicates). The variant GFTLNSYGIS / VIYSKGRRTFYGDSVK / GRAAGFTDS gave nd (0 of 3 replicates). For GFTLNCYGIS / VITSDGRRTFYGDSVK / GRAAGAFDS, the assay gave nd (0 of 3 replicates).

The variant GFTLQSYGIS / VIYSDERRTFYGDSVK / GRAAGQFDS showed nd (0 of 3 replicates). With GFTLNSYGIS / VIYSDGRRTFYGDSVA / GDAAGDFDS the result was nd (0 of 3 replicates). With GFTSNSYGIS / VIYSDGRRTFYGDSEK / GRAAGPFDS the result was nd (0 of 3 replicates). The variant GFTLNSYGIS / VIYSDGRRTDAGDSVK / GRAAGQFDS gave nd (0 of 3 replicates). The variant GFTLNSYGIS / VIISDGRRTFYGDPVK / GRAAGHFDS gave 670 nM (2 of 3 replicates). The variant GFTLNSYGIS / VIYKDGRRTFYGDSVQ / GRAAGGFDS showed nd (0 of 3 replicates).

The variant GFTLNSYGIS / VCYSDGRVTFYGDSVK / GRAAGFFDS showed nd (0 of 3 replicates). The variant GFTLNSYGIS / VIYSDGRRTFYGDSVK / GRAAGSFDS gave 14 nM (3 of 3 replicates). The variant GFTLNSYAIS / VIYSDGRRLFYGDSVK / GRAAGRFDS showed 14 µM (3 of 3 replicates). For GFTLNSYGID / VSYSDGRRTFYGDSVK / GRAAGRFDS, the assay gave 160 µM (2 of 3 replicates). For GFTGNSYIIS / VIYSDGRRTFYGDSVK / GRAAGRFDS, the assay gave 1.6 µM (1 of 3 replicates). With GFTLNSYGIS / VIYSDGRLTFYGDSVW / GRAAGCFDS the result was nd (0 of 3 replicates).

The variant GFTLNSYGSS / VIYEDGRRTFYGDSVK / GRAAGNFDS showed 79 µM (3 of 3 replicates). With GFTLNSYGIS / VIYSDGRRTFYGDSVK / GRAAGGFDY the result was 65 nM (3 of 3 replicates). The variant GFTLRSYGIS / VIYSDGRRTFYGDSVK / TRAAGRFDS gave 110 µM (1 of 3 replicates). The variant CFTLNRYGIS / VIYSDGRRTFYGDSVK / GRAAGYFDS gave nd (0 of 3 replicates). For GFTLNSYGIS / VIYSDGRREFYGDSVK / GYAAGAFDS, the assay gave 610 nM (2 of 3 replicates). With GFILNSYGIS / VIYSDGRRTFYGDSVK / GRAAGMFDS the result was 62 nM (3 of 3 replicates).

The variant GFTYNSYGIS / VIYSDGRRTDYGDSVK / GRAAGAFDS showed 30 µM (1 of 3 replicates). With GFTLNWYGIS / VIYSDGRRTFYGDSVK / GRAVGFFDS the result was nd (0 of 3 replicates). The variant GCTLNSYGIS / VIYSDGRRTFYGDSVK / FRAAGFFDS gave 35 µM (1 of 3 replicates). The variant GFTLNSYGIS / VIYSDGRRTFMGDSVK / GRAAGHFDS showed 70 µM (2 of 3 replicates). The variant GFELNSCGIS / VIYSDGRRTFYGDSVK / GRAAGAFDS showed nd (0 of 3 replicates). The variant GFTLNSYGIS / VIYSDGRRTFYGDSVK / GRAAGNWDS showed nd (0 of 3 replicates).

The variant GFTLNSYGIS / VIYSDGRMTFYGDSVK / GRAAGNWDS gave nd (0 of 3 replicates). For GFTLNSYHIS / VIYHDGRRTFYGDSVK / GRAAGSFDS, the assay gave nd (0 of 3 replicates). The variant GFTLNQYGIS / VIYSDGRRTFYGDSVK / GRAAGPFDS showed nd (0 of 3 replicates). The variant GFTLNSYGAS / VIYSDGRRTFYGDYVK / GRAAGYFDS gave 2.3 µM (1 of 3 replicates). The variant GFELNSYGIS / VIYSDGRRTFYGDSVK / ARAAGYFDS gave 3.3 nM (3 of 3 replicates). The variant GFTLNSYGIS / VIYSDGRRTFCGDSVK / GRADGFFDS showed 280 nM (3 of 3 replicates).

The variant GFTLNSYGIS / VIYSDGRRTFYMDSVT / GRAAGLFDS showed nd (0 of 3 replicates). The variant GFTLNSYGIS / VIYSDGRRTFDGDSVK / GGAAGGFDS gave 6.8 µM (1 of 3 replicates). The variant GFTLNSYGIS / VIYSDGRRTFYGDSVK / GRAAGGFDS showed 30 µM (2 of 3 replicates). For GFTLNSYGIS / VIYSVGRRTFYGDSVK / GRAAGCFDS, the assay gave 5.0 µM (1 of 3 replicates). The variant GFTLNSYGIS / YIYSDGRRTFYGDSVK / GWAAGSFDS gave 5.2 µM (2 of 3 replicates). The variant GFTFNSYGIS / VIYSDGRDTFYGDSVK / GRAAGVFDS showed nd (0 of 3 replicates).

The variant GFTLNSYGIS / VIYSDGRWTFYGDSVK / GRAAIDFDS showed 4.0 µM (1 of 3 replicates). With GFTLNSYGIM / VIYSDGFRTFYGDSVK / GRAAGYFDS the result was 720 µM (1 of 3 replicates). The variant GFTLNSCGIS / VIYSDGRRTFYGDSVK / GRAAGYFDS gave 110 µM (1 of 3 replicates). With GFTLNSYGIS / VIYSDGRRTFYGDSVP / GRAHGWFDS the result was nd (0 of 3 replicates). The variant GFTLNSYGIS / VIYSDGRRQFYGDSVK / GRAAGQFDS gave 41 nM (3 of 3 replicates).

For reference, 6 entries of the list once more:

CDR-H1,CDR-H2,CDR-H3,Kd (apparent),replicates with signal
GFILNSYGIS,VIYSDGRRTFYGDSVK,GRAAGMFDS,62 nM,3/3
GFTLNSYGIS,VIYSDGRRTFCGDSVK,GRADGFFDS,280 nM,3/3
GFTLNSYGIS,VIYSDGRRTFNGDSNK,GRAAGDFDS,nd,0/3
GFTLNSCGIS,VIYSDGRRTFYGDSVK,GRAAGYFDS,110 µM,1/3
GFTLNSYGIM,VIYSDGFRTFYGDSVK,GRAAGYFDS,720 µM,1/3
GFTLNSYGIS,VIYSDGRRTFYGDSVK,GRAAGSFDS,14 nM,3/3